Screens as filed in PubChem BioAssay.
An excerpt weighted towards active compounds, which were near 2.3% of everything screened.
Yeast UUG start-1: alters start codon recognition fidelity in yeast | S. cerevisiae UUG-firefly luciferase reporter, luminescence/redox ratio | activity score, % at 18.7 µM | hit rate 0.13% among 350,000 | AID 602363;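 active means replicate mean at a twofold rise or more, about +100% in these data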;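 further: firefly luciferase made from a UUG start codon reports start codon fidelity; reporter light over untreated wells divided by growth signal over untreated wells; some hits fall short of that in this replicate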
CendR NRP1 mod: NRP-1/CendR interaction modulation; O14786; FAM-RPARPAR peptide binding to NRP-1, fluorescence polarization; inhibition, % at 25 µM; 360,000 compounds, 0.85% hits; AID 602438;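 active = inhibition or corrected inhibition above about 18%, plus a signal ratio from 0.5 to 1.5, limit read from the data, passing the limit was not always enough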
MC4R antag cAMP: antagonists of human melanocortin 4 receptor (MC4R); MC4R-expressing cells, MTII-stimulated cAMP, LANCE TR-FRET; inhibition, % at 6.5 µM; P32245; 360,000 compounds, 0.48% hits;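 active = inhibition above its plate's cutoff, the mean of tested wells on that plate plus 3 SD, cut at about 29% in these data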;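 also: 0% = Melanotan II alone and 100% = Melanotan II plus saturating MCL0020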
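Assay system: U2OS-MC4R stable cell line; Also added: Melanotan II; Technique: Eu-cAMP/anti-cAMP TR-FRET, emission 671 nm; Times: 30-min compound, 1-h challenge, 1-h detection, room temperature.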
ARFGAP1 inhibitor: inhibitors of rat ARFGAP1. Q62848. Arfgap1-stimulated ARF1 GTP hydrolysis, GDP FP detection. inhibition, % at 16.5 µM. 360,000 compounds, 0.26% hits. AID 651572;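 active = inhibition above a per-plate limit, mean inhibition of low control wells plus 3 SD, cut at about 25% in these data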;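 also: 0% = DMSO wells with enzyme and 100% = wells lacking Arfgap1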
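Assay system: Rat Arfgap1 GAP domain (His6, aa 1-136), purified enzyme | Buffer or medium: HEPES 25 mM pH 7.5, NaCl 150 mM, MgCl2, DTT | Schedule: GTP hydrolysis reaction 2 h at 25 °C | Signal: FP of antibody-bound GDP Alexa 633 tracer, ex 620/em 688 nm | Measure: Percent inhibition of Arfgap1-stimulated GTP hydrolysis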
ASAP1 GAP inh: inhibitors of human ASAP1 ArfGAP activity; ASAP1-stimulated ARF1 GTP hydrolysis, GDP FP detection; AID 624377; Q9ULH1; 360,000 compounds, 0.19% hits; inhibition, % at 16.5 µM; in the data active = inhibition above about 25%;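 also: 0% = vehicle with enzyme and substrate and 100% = no enzyme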
MC4R barr agon: activates human MC4R beta-arrestin recruitment; P32245; activation, % at 8.9 µM; U2OS MC4R beta-arrestin complementation, luminescence; percent of melanotan II response, DMSO zero; 360,000 compounds, 0.98% hits;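 active = activation above a per-plate cutoff, the mean activation of sample wells on that plate plus 3 SD, cut at about 8% in these data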
MC4R barr conf: human MC4R beta-arrestin agonism confirmation; 2,400 compounds, 31% hits; activation, % at 8.9 µM; U2OS MC4R beta-arrestin recruitment, luminescence; scaled DMSO 0%, Melanotan II 100%; AID 602192; shares compounds with MC4R barr agon;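 active = mean activation across replicates above the hit cutoff set in the earlier primary screen, cut at about 8% in these data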
MOR DOR agonist: activates mu-delta opioid heterodimer, MC4R agonist counter-screen | shares compounds with MC4R barr agon | activation, % at 9.2 µM | 2,400 compounds, 5.8% hits | U2OS PathHunter beta-arrestin, beta-gal luminescence; percent of deltorphin B response, DMSO zero;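 active = mean activation across replicates exceeds the hit threshold derived in the earlier primary screen, cut at about 18% in these data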;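 also: 100% = deltorphin B at 0.9 µM final and 0% = DMSO alone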
Yeast UUG start-2: alters UUG start codon use in yeast. shares compounds with Yeast UUG start-1. S. cerevisiae UUG-start firefly luciferase, luminescence, 4 h; 100% means double the DMSO signal. activation, % at 38 µM. 540 tested, under 10 active. AID 652061;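 active = signal increase whose fitted curve reaches an absolute level of 40 at a concentration under 10 µM; inactive = activity opposite to the expected increase, or the rest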
ASAP1 inh confirm: ASAP1 inhibition confirmed; shares compounds with ASAP1 GAP inh; ASAP1-stimulated Arf1 GTPase, GDP fluorescence polarization; inhibition, % at 16.5 µM; 620 compounds, 37% hits; AID 624431;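 active = mean inhibition over triplicates exceeds the hit threshold derived for the earlier primary screening run, cut at about 25% in these data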
ARFGAP1 inh conf: confirmation of rat ARFGAP1 inhibitors; shares compounds with ARFGAP1 inhibitor; ARFGAP1-stimulated ARF1 GTP hydrolysis, GDP tracer FP; inhibition, % at 16.5 µM; 890 compounds, 30% hits; AID 651608;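 active = average inhibition over triplicates above the hit cutoff set in the earlier primary screen, cut at about 25% in these data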;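 also: 0% = Arfgap1 plus ARF1-GTP with DMSO and 100% = wells lacking Arfgap1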
Numbers without * were called inactive; . = no result.

SMILES	Yeast UUG start-1	CendR NRP1 mod	MC4R antag cAMP	ARFGAP1 inhibitor	ASAP1 GAP inh	MC4R barr agon	others
CCCNC(=O)c1c(N)n(Cc2ccc3c(c2)OCO3)c2nc3ccccc3nc12	-15	-48	-20	.	.	0
COc1ccc(C#Cc2ccc([C@@H]3[C@H](CO)N4CCCCN(C(=O)Cc5ccncc5)C[C@@H]34)cc2)cc1	-5	.	.	.	.	.
O=P(Nc1ccccc1)(Oc1ccccc1)Oc1ccccc1	-10	14	5	8	4	2
O=P(NC(c1ccccc1)c1ccccc1)(Oc1ccccc1)Oc1ccccc1	-12	8	1	0	-17	11*	MC4R barr conf=0;MOR DOR agonist=8
O=C(Cc1cccnc1)N1CCCCN2[C@H](CO)[C@@H](c3ccc(/C=C/c4ccccc4)cc3)[C@@H]2C1	-17	.	.	.	.	.
O=C(Cc1cccnc1)N1CCCCN2[C@@H](CO)[C@@H](c3ccc(C#CC4CC4)cc3)[C@@H]2C1	10	.	.	.	.	.
COc1ccccc1OP(=O)(Nc1ccc(Br)cc1)Oc1ccccc1OC	-27	-8	5	-5	22	18*	MC4R barr conf=-1;MOR DOR agonist=8
O=C(Cc1cccnc1)N1CCCCN2[C@H](CO)[C@H](c3ccc(/C=C/c4ccccc4)cc3)[C@H]2C1	-11	.	.	.	.	.
Nc1ccc(C2(c3ccc(N)cc3)c3ccccc3-c3ccccc32)cc1	.	3	-4	10	10	70*	MC4R barr conf=45*;MOR DOR agonist=15
COC(=O)[C@@H]1[C@@H](CO)[C@@H]2Cn3c(cccc3=O)[C@H]1N2C(=O)C1CCCC1	11	.	.	.	.	.
NC(=O)c1ccc(N=Cc2c(O)n(Cc3ccco3)c(=O)[nH]c2=O)cc1	.	-54	-10	-3	-3	1
CCN(CC)c1ccc(N=Cc2c(O)n(Cc3ccco3)c(=O)[nH]c2=O)cc1	.	-38	13	0	-3	11*	MC4R barr conf=-1;MOR DOR agonist=5

For reference, two of the compounds above.
SMILES	Yeast UUG start-1	CendR NRP1 mod	MC4R antag cAMP	ARFGAP1 inhibitor	ASAP1 GAP inh	MC4R barr agon	others
NC(=O)c1ccc(N=Cc2c(O)n(Cc3ccco3)c(=O)[nH]c2=O)cc1	.	-54	-10	-3	-3	1
CCN(CC)c1ccc(N=Cc2c(O)n(Cc3ccco3)c(=O)[nH]c2=O)cc1	.	-38	13	0	-3	11*	MC4R barr conf=-1;MOR DOR agonist=5

Fetched one by one from the entries so far, 3 records:
SMILES	Yeast UUG start-1	CendR NRP1 mod	MC4R antag cAMP	ARFGAP1 inhibitor	ASAP1 GAP inh	MC4R barr agon	others
O=P(Nc1ccccc1)(Oc1ccccc1)Oc1ccccc1	-10	14	5	8	4	2
COc1ccccc1OP(=O)(Nc1ccc(Br)cc1)Oc1ccccc1OC	-27	-8	5	-5	22	18*	MC4R barr conf=-1;MOR DOR agonist=8
O=C(Cc1cccnc1)N1CCCCN2[C@H](CO)[C@H](c3ccc(/C=C/c4ccccc4)cc3)[C@H]2C1	-11	.	.	.	.	.

Additional structures.
SMILES	Yeast UUG start-1	CendR NRP1 mod	MC4R antag cAMP	ARFGAP1 inhibitor	ASAP1 GAP inh	MC4R barr agon	others
CC1CCC(C(C)C)C(OC(=O)Cn2c(COc3ccccc3)[n+](C)c3ccccc32)C1 (stereo unspecified)	-8	-2	-11	-11	1	29*	MC4R barr conf=10*;MOR DOR agonist=8
CC(C)(C)c1cc(OC(=O)Cc2ccccc2)ccc1O	-3	-1	3	-7	-11	10*	MC4R barr conf=6;MOR DOR agonist=14
O=C(N/N=C/c1c(O)n(-c2ccccc2)c(=S)[nH]c1=O)c1ccccc1	182*	-12	-9	-5	-1	-3	Yeast UUG start-2=15
COc1cccc(-c2ccc([C@H]3[C@@H](CO)N4CCCCN(C(=O)Cc5ccncc5)C[C@H]34)cc2)c1	-2	.	.	.	.	.
O=C(Cc1ccccn1)N1CCCCN2[C@H](CO)[C@H](c3ccc(-c4ccccc4)cc3)[C@@H]2C1	-1	.	.	.	.	.
CC(=O)c1cccc(OCC(O)CN2CC=C(c3ccccc3)CC2)c1 (stereo unspecified)	10	5	2	-8	2	0
Cc1cccc(OCC(O)CN2CC2)c1 (stereo unspecified)	143*	-24	6	2	11	0	Yeast UUG start-2=6
COc1ccccc1CN1CCCC(C(=O)c2ccccc2OC)C1 (stereo unspecified)	active	-11	22	5	2	0	Yeast UUG start-2=11
CCSc1nnc(C(N)Cc2ccccc2)o1 (stereo unspecified)	-13	1	1	-3	29*	-1	ASAP1 inh confirm=-2
CCSc1nnc([C@@H](N)Cc2ccccc2)o1	-5	-10	11	5	1	-2
N#Cc1cccc(-c2ccc([C@@H]3[C@@H](CO)N4CCCCN(C(=O)Cc5ccccc5)C[C@H]34)cc2)c1	-1	.	.	.	.	.
COP(=O)(OC)C(NC(C)=O)C(Cl)(Cl)Cl (stereo unspecified)	.	-4	-4	14	26*	1	ASAP1 inh confirm=4
Cc1ccc(/C=C2\C(=O)NC(=O)N(Cc3ccccc3Cl)C2=O)o1	.	-12	28	2	28*	-2	ASAP1 inh confirm=8
N#Cc1cccc(-c2ccc([C@H]3[C@H]4CN(C(=O)Cc5ccncc5)CCCCN4[C@H]3CO)cc2)c1	-11	.	.	.	.	.
CN(c1ccc(OCC(=O)N2CCN(C/C=C/c3ccccc3)CC2)cc1)S(=O)(=O)c1cccs1	3	-9	27	27*	-12	3	ARFGAP1 inh conf=4
OC12Oc3ccccc3C=C1N1CCC2CC1 (stereo unspecified)	4	-1	13	25*	-5	0	ARFGAP1 inh conf=4
O=C(Cc1ccncc1)N1CCCCN2[C@H](CO)[C@@H](c3ccc(C#Cc4ccccc4F)cc3)[C@H]2C1	0	.	.	.	.	.
CCOC(=O)c1c(NS(=O)(=O)c2ccccc2)n(CCCOC)c2nc3ccccc3nc12	.	3	-6	34*	4	3	ARFGAP1 inh conf=-10
Cc1ccccc1-n1c(O)c(/C=N/Nc2nc3c(c(=O)n(C)c(=O)n3C)n2C)c(=O)[nH]c1=S	.	-41	-8	26*	1	-3	ARFGAP1 inh conf=4
Cc1cccc(-n2c(O)c(/C=N/Nc3nc4c(c(=O)n(C)c(=O)n4C)n3C)c(=O)[nH]c2=S)c1	-25	-13	-3	0	-4	-2
COc1cccc(-c2ccc([C@H]3[C@H](CO)N4CCCCN(C(=O)Cc5ccncc5)C[C@@H]34)cc2)c1	-1	.	.	.	.	.
COc1ccc(C(=O)NC(=S)N2C[C@H]3C[C@H](C2)c2cccc(=O)n2C3)cc1	-22	-7	-1	34*	3	1	ARFGAP1 inh conf=7
COc1ccc(/C=C/C(=O)NC(=S)N2C[C@H]3C[C@H](C2)c2cccc(=O)n2C3)cc1	-25	-2	-8	-10	-2	0
O=C(O)[C@H]1[C@H](CO)[C@H]2Cn3c(ccc(-c4ccncc4)c3=O)[C@@H]1N2C(=O)C1CCC1	-33	.	.	.	.	.
